{"source": "patent US20250213744A1", "about": "“ANTIMICROBIAL HYDROGEL COMPOSITION” (priority 2022, published 2025)", "experiment": "Ninhydrin assay, plasma induced release of gentamicin from AMPS containing hydrogel", "type": "physicochemical", "conditions": "4 minutes cold plasma, every time point up to 6 hours", "data": [{"substance": "gentamicin", "values": [{"measurement": "amount of gentamicin released by plasma jet against control where plasma was not applied", "value": "at least twice"}]}]}
